This note sets out measurements from patent publication US7183068B2, “Methods of manufacturing glucose measuring assemblies with hydrogels” (Animas Technologies, LLC, priority 1999, dated 2007).

Data set [1] in a line: Adsorption of Nipastat paraben components from hydrogel by gel retaining layer, HPLC of gel extract. In kind it is physicochemical. Particulars: 9 Days at 4° C.; for HPLC peak intensity of paraben extracted from hydrogel, Average: average of 5; for HPLC peak intensity of paraben extracted from hydrogel: individual samples 1-5. On the procedure: (§1) Nipastat®-containing hydrogels were formulated with the appropriate buffer salts under standard conditions, from which samples were taken for analysis. […] The hydrogels were cut using a ¾ inch punch to generate the sample disks to assay. Each disk was added to 5 mL of acetonitrile/water (30% ACN, v/v) and the Nipastat® biocide was extracted for 1 hour while shaking on an orbital shaker at 100 rpm. The extract was then filtered through a 0.2 μm membrane prior to HPLC separation and UV detection at 254 nm.
Reverse phase HPLC chromatography was performed using a Waters 3.9 mm×15 cm Nova-Pak C-18 column (Milford, Mass.) operating at a flow rate of between about 1.0 to 2.0 mL/min. at 35° C. The eluent was monitored by UV at 254 nm using a Shimadzu SPD-10AU UV-Visible spectrometer (Kyoto, Japan). Samples 10 μL in volume were injected into the column equilibrated in 30% ACN in water, and the following 20-minute gradient program was performed: • 1. Initial time of injection: 30% ACN/70% water at a flow rate of 1 mL/min • 2. Linear Gradient from 30% ACN to 80% ACN for 9.0 minutes (1 mL/min) • 3. Linear Gradient from 80% ACN to 100% ACN for 0.5 minutes (1 mL/min) • 4. 100% ACN for 4.5 minutes (1 mL/min) • 5. Linear Gradient from 100% ACN to 30% ACN for 0.5 minutes at a flow rate of 2 mL/min • 6.30% ACN for 5.5 minutes at a flow rate of 1 mL/min
The HPLC profiles of the extracts were compared with that of a standard solution of known concentration comprising the p-hydroxybenzoate derivatives. The peak intensities of the experimental samples are compared to those of the standards to determine relative amounts of each extracted paraben.
Collection assemblies incorporating Nipastat® biocide-comprising hydrogels were assayed for retention of the biocide within the hydrogel. Samples of the hydrogel prior to and after incorporation into the collection assembly, as well as the components of the collection assembly in contact with the hydrogel, were prepared as described in Example 1.

The nature of data set [2]: Adsorption of Nipastat paraben components from hydrogel by mask layer, HPLC of gel extract. In kind it is physicochemical. Particulars: Gel Control, 48 Hours at 4° C. On the procedure:
as §1
Reverse phase HPLC chromatography was performed using a Waters 3.9 mm×15 cm Nova-Pak C-18 column (Milford, Mass.) operating at a flow rate of between about 1.0 to 2.0 mL/min. at 35° C. The eluent was monitored by UV at 254 nm using a Shimadzu SPD-10AU UV-Visible spectrometer (Kyoto, Japan). Samples 10 μL in volume were injected into the column equilibrated in 30% ACN in water, and the following 20-minute gradient program was performed: • 1. Initial time of injection: 30% ACN/70% water at a flow rate of 1 mL/min • 2. Linear Gradient from 30% ACN to 80% ACN for 9.0 minutes (1 mL/min) • 3. Linear Gradient from 80% ACN to 100% ACN for 0.5 minutes (1 mL/min) • 4. 100% ACN for 4.5 minutes (1 mL/min) • 5. Linear Gradient from 100% ACN to 30% ACN for 0.5 minutes at a flow rate of 2 mL/min • 6.30% ACN for 5.5 minutes at a flow rate of 1 mL/min […]

Several values for one entry are separate records, joined by “and”; a condition that tells them apart may be missing. Equal entries are not always repeated.

On to p-hydroxybenzoic acid butyl esters, for which the “% Loss of Nipastat ® biocide from Gel” value in data set [1] (Gel + GRL versus Gel Control) worked out at 82.4%. Moreover, the entries for the “HPLC peak intensity of paraben extracted from hydrogel, Average” value in data set [1] (Gel + GRL), in data set [1] (Gel Control) and in data set [2] (average of 5) were 12718, 72171 and 66562, respectively. Also, the “HPLC peak intensity of paraben extracted from hydrogel” value in data set [1] (Gel + GRL) was 1377 and 15432 and 8640 and 17787 and 20353; in data set [1] (Gel Control), 66552 and 82337 and 82288 and 67760 and 61920; in data set [2] (individual samples 1-5) it was 59177 and 75858 and 68194 and 79360.
